Columns and labels:
[1] = system: FIPV serotype II strain (WSU-79-1146); experiment: Antiviral efficacy against FIPV replication in CRFK cells, viral load by qRT-PCR; format: cell-based, feline infectious peritonitis virus
CRFK cells [2] = experiment: Cell viability assay (MTT, Cell Proliferation Kit I); format: cell-based, feline; details: 48 h, MTT staining
Procedure: The Crandell-Reese feline kidney (CRFK) cells utilized in this study were purchased from American Type Culture Collection (ATCC, Manassas, VA, USA), and cultured in Eagle’s Minimum Essential Medium (EMEM) medium supplemented with 10% fetal bovine serum (FBS), 1% antibiotics (penicillin and streptomycin), and 1% non-essential amino acids. The reagents were obtained from ATCC. The CRFK cells were incubated at 37 °C with 5% CO2.
The cell viability of CRFK cells was measured using a Cell Proliferation Kit I (MTT) (Roche Applied Science, Indianapolis, IN, USA), following the manufacturer’s instructions. […] After incubation for 48 h, 10 μL of MTT solution (0.5 mg/mL in phosphate-buffered saline) was added to each well. The plate was incubated for 4 h at 37 °C to allow the formation of formazan crystals. Following incubation, 1% sodium dodecyl sulfate (100 μL) solution was added to dissolve the crystals.

CRFK cells [3] = details: 48 h, CellTox Green

N#CC[C@H](C1CCCC1)n1cc(-c2ncnc3[nH]ccc23)cn1 [Ruxolitinib]
Selectivity index (SI) = (mean CC50)/(mean EC50) [1]: 7.8 | Concentration as high as which the drug could be used safely with minimal cytotoxicity (CRFK cells [2]): 250 µM | Highest concentration with essentially no cytotoxicity (CRFK cells [3]): 250 µM

— PMC10459838 (Veterinary Sciences, 2023)
